These are literature values, as cited in patent publication US20240075093A1, “COMPOSITIONS AND METHODS OF TREATING A PI3K MEDIATED DISEASE” (VIRGINIA TECH INTELLECTUAL PROPERTIES, INC., priority 2020, published 2024).

Sequences of proteins named here, by UniProt entry; tags and fusion partners are left off.
UniProt P42338, whole entry, species assumed: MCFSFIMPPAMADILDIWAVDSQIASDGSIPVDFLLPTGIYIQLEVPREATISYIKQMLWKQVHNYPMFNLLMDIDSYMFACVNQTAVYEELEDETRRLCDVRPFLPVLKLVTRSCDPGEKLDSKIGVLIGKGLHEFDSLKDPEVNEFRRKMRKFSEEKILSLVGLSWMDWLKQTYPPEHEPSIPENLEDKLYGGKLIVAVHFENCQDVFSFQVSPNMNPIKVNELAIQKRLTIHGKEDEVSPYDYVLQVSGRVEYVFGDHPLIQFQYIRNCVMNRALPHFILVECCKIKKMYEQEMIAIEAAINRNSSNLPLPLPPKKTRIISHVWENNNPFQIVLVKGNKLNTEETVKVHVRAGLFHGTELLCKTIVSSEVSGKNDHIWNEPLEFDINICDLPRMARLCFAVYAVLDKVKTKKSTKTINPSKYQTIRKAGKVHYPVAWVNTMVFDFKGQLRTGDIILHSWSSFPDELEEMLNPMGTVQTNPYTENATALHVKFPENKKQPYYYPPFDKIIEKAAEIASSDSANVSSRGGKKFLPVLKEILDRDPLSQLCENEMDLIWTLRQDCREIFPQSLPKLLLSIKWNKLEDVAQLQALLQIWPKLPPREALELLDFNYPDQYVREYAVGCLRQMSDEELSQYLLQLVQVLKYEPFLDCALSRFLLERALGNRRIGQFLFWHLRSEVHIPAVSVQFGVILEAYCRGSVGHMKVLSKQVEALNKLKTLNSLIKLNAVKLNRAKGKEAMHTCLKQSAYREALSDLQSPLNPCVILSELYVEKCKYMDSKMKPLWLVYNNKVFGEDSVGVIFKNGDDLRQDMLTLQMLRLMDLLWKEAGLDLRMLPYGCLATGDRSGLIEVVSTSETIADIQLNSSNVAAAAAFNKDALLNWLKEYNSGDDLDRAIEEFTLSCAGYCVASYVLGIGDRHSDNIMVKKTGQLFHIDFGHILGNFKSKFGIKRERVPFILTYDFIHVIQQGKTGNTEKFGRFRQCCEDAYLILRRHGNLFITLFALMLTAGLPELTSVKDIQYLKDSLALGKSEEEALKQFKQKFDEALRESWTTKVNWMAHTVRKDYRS

This series addresses p110β (Homo sapiens, UniProt P42338). To be noted: cell-free, reported; cited from earlier work.

On to `Cc1cc(C(C)Nc2ccccc2)c2nc(N3CCOCC3)cc(=O)n2c1` (stereo not shown) [TGX-221], for which the concentration for half-maximal inhibition (IC50) is 8.5 nM.
